Reference: patent US12215108B2, “Development of potential antidotes for arsenicals” (dated 2025)

Sequences of proteins named here, by UniProt entry; tags and fusion partners are left off. A change or cut given only in a name is not applied to a line headed by its entry.
UniProt Q9Y572: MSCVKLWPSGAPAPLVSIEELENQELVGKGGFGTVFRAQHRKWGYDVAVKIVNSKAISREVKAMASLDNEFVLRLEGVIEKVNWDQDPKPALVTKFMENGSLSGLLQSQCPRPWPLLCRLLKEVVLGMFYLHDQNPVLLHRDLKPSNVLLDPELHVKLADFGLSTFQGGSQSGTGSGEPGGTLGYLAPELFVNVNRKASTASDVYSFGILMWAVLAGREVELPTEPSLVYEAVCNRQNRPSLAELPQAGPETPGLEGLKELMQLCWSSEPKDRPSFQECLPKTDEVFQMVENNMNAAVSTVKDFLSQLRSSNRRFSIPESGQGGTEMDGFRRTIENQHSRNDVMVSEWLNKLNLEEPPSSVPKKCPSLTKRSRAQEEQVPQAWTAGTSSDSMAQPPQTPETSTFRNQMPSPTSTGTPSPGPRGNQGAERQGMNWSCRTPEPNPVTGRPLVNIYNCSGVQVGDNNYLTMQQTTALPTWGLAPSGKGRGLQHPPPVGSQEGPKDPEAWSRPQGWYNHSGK

Assays:
BRD4 = BRD4 (Homo sapiens, UniProt O60885); experiment: in vitro BRD4 assay; details: read-out: IC50 BRD4
IL6 = experiment: IL-6 cell based assay; details: read-out: IC50 IL6
RIPK3 = RIPK3 (Homo sapiens, UniProt Q9Y572); experiment: in vitro RIP3 kinase assay; details: read-out: IC50 RIPK3
[1] = system: lewisite-induced skin injury; experiment: Lewisite-induced vesicant skin injury model
PAO-induced skin injury = experiment: PAO-induced cutaneous injury model, topical treatment; details: PAO-challenged skin
[2] = 1 mg/mouse, applied 30 minute and 6 hr post lewisite

| Structure (SMILES) | IC50 (BRD4) [µM] | IC50 (IL6) [µM] | IC50 (RIPK3) [µM] | further results |
| --- | --- | --- | --- | --- |
| COc1ccc(Nc2ncc3nc(Nc4c(F)cc(F)cc4F)n(C4CCNCC4)c3n2)cc1 | 15.9 | 0.01 | 0.11 | – |
| Oc1ccc(Nc2ncc3nc(Nc4c(F)cc(F)cc4F)n(C4CCOC4)c3n2)cc1 (stereo not drawn) | 1.21 | 1.07 | 0.31 | – |
| Oc1ccc(Nc2ncc3nc(Nc4c(F)cc(F)cc4F)n(-c4ccc(O)cc4)c3n2)cc1 | 1.71 | < 0.2 | 1.45 | – |
| Fc1cc(F)c(Nc2nc3cnc(Nc4ccc(OC(F)F)cc4)nc3n2C2CCOCC2)c(F)c1 | 4.5 | 0.31 | 0.61 | – |
| Fc1cc(F)c(Nc2nc3cnc(Nc4ccccc4)nc3n2C2CCOCC2)c(F)c1 | 15 | 0.34 | 0.16 | – |
| Oc1ccc(-n2c(Nc3c(F)cc(F)cc3F)nc3cnc(NC4CCOCC4)nc32)cc1 | 21.4 | 0.28 | 28 | – |
| Oc1ccc(Nc2ncc3nc(Nc4c(F)cc(F)cc4F)n(C4CCNCC4)c3n2)cc1 | 6.87 | 0.05 | 0.01 | – |
| Oc1ccc(Nc2ncc3nc(Nc4ccccc4)n(C4CCOCC4)c3n2)cc1 | 0.77 | 0.53 | 0.43 | – |
| Oc1cccc(Nc2ncc3nc(Nc4c(F)cc(F)cc4F)n(C4CCOCC4)c3n2)c1 | 11.8 | 0.28 | 0.09 | – |
| Fc1cc(F)c(Nc2nc3cnc(Nc4ccc(F)c(F)c4)nc3n2C2CCOCC2)c(F)c1 | 2.02 | 1.51 | 6.48 | – |
| Cc1ccc(Nc2ncc3nc(Nc4c(F)cc(F)cc4F)n(C4CCOCC4)c3n2)cc1 | 29.6 | 0.88 | 0.88 | – |
| Fc1cc(F)c(Nc2nc3cnc(Nc4ccc(OC(F)(F)F)cc4)nc3n2C2CCOCC2)c(F)c1 | 13.5 | 0.88 | > 40 | – |
| COc1ccc(Nc2ncc3nc(Nc4c(F)cc(F)cc4F)n(-c4ccc(OC)cc4)c3n2)cc1 | 11.6 | 7.8 | 5.81 | – |
| O=C(O)c1ccc(Nc2ncc3nc(Nc4c(F)cc(F)cc4F)n(C4CCOCC4)c3n2)cc1 | > 40 | 19.1 | < 0.08 | – |
| Oc1ccc(Nc2ncc3nc(Nc4c(F)cc(F)cc4F)n(C4CCOCC4)c3n2)cc1 | 0.52 | 0.61 | 0.09 | lewisite-induced skin damage, gross appearance of the skin [1, 2]: protected against lewisite-induced skin damage very significantly; skin bi-fold thickness and Draize score (erythema, edema, necrosis) [1, 2]: significant protection against lewisite-induced changes in these parameters; expression of BRD4-dependent inflammatory genes (IL-6, Saa3, Nfe212, Nlrp3), RT-PCR ([1]; lewisite-challenged skin): significantly reduced transcriptionally regulated BRD4-dependent inflammatory genes; expression of BRD4-regulated genes involved in skin tissue damage (Foxo3, Irf1, Bcl6), RT-PCR ([1]; lewisite-challenged skin): highly effective in attenuating the expression of genes associated with lewisite-induced skin tissue damage; histopathological changes: infiltration of inflammatory cells and epidermal cell damage (H&E) ([1]; lewisite-challenged skin): significantly reduced both infiltration of inflammatory cells into the dermis; protein expression of BRD4 and histone marks H3k9ac, H3k18ac, H4k5ac, H4K8ac (western blot) ([1]; lewisite-challenged skin, compared to CPI-0610 and ABBV-744): better or at least equally effective; nuclear expression of BRD4 and H3K9ac, immunohistochemistry ([1]; lewisite-treated skin): significantly reduced the nuclear expression of these proteins; BRD4 expression and histone marks H3K9ac and H4K5ac, densitometry of western blots (PAO-induced skin injury; 6 h and 24 hrs post PAO): significantly reduced BRD4 expression and BRD4-dependent H3 and H4 histone marks in a dose-dependent manner; mRNA expression of BRD4-regulated inflammatory genes (Nfe2l2, NLRP3, IL-6) (PAO-induced skin injury; 24 hrs, RT-PCR): decreased their levels even below the vehicle-treated control level; mRNA expression of BRD4 regulated genes involved in tissue damage (Foxo3, Cxcl13, Pell) (PAO-induced skin injury; 24 hrs, RT-PCR): diminution in the expression of mRNA of these genes; phosphorylation of RIPK3 and MLKL (RIPK3 signaling), western blot (PAO-induced skin injury; three topical doses, 10 minutes after PAO): significantly reduces this signaling in a dose-dependent manner |
| COc1ccc(Nc2ncc3nc(Nc4c(F)cc(F)cc4F)n(C4CCOCC4)c3n2)cc1 | 6.26 | 0.64 | 0.54 | – |
| CCNC(=O)c1cc2c(-c3cc(C(C)(C)O)ccc3Oc3c(C)cc(F)cc3C)cn(C)c(=O)c2[nH]1 | – | – | – | histopathological changes: infiltration of inflammatory cells and epidermal cell damage (H&E) ([1]; lewisite-challenged skin): significantly reduced both infiltration of inflammatory cells into the dermis |
| COc1ccc(-n2c(Nc3c(F)cc(F)cc3F)nc3cnc(NC4CCOCC4)nc32)cc1 | 39.5 | – | > 40 | – |
| Fc1ccc(Nc2ncc3nc(Nc4c(F)cc(F)cc4F)n(C4CCOCC4)c3n2)cc1 | 3.17 | 0.5 | 0.59 | – |
| COC(=O)c1ccc(Nc2ncc3nc(Nc4c(F)cc(F)cc4F)n(C4CCOCC4)c3n2)cc1 | 16.3 | 1.6 | 17.5 | – |
| Oc1ccccc1Nc1ncc2nc(Nc3c(F)cc(F)cc3F)n(C3CCOCC3)c2n1 | 39.8 | – | > 40 | – |
| Oc1ccc(Nc2ncc3nc(Nc4ccc(F)cc4)n(C4CCOCC4)c3n2)cc1 | 0.69 | 0.45 | 0.77 | – |
| COc1ccc(Nc2ncc3nc(Nc4c(F)cc(F)cc4F)n(C4CCN(C)CC4)c3n2)cc1 | 23.7 | < 0.098 | 2.43 | – |
| COc1ccc(Nc2ncc3nc(Nc4c(F)cc(F)cc4F)n(C4CCOC4)c3n2)cc1 (stereo not drawn) | 9.41 | 2.19 | 1.33 | – |
| Cc1noc2c1-c1ccccc1C(c1ccc(Cl)cc1)=N[C@H]2CC(N)=O | – | – | – | histopathological changes: infiltration of inflammatory cells and epidermal cell damage (H&E) ([1]; lewisite-challenged skin): significantly reduced both infiltration of inflammatory cells into the dermis |
| CC(=O)Nc1c(F)cc(C(=O)N[C@H]2CC[C@H](O)CC2)cc1O[C@@H](C)c1ccccc1 | – | – | – | histopathological changes: infiltration of inflammatory cells and epidermal cell damage (H&E) ([1]; lewisite-challenged skin): afforded protection to the minimum level |
| CN(C)c1ccc(Nc2ncc3nc(Nc4c(F)cc(F)cc4F)n(C4CCOCC4)c3n2)cc1 | 3.76 | < 0.1 | 0.22 | – |
| Fc1cc(F)c(Nc2nc3cnc(Nc4ccc(C(F)(F)F)cc4)nc3n2C2CCOCC2)c(F)c1 | 24.6 | 1.17 | > 40 | – |
